Experimental findings from patent publication US10807970B2 (priority 2016, dated 2020) are described below.

Chains of the proteins cited; added tags and fusions are not shown.
UniProt Q99720, whole entry: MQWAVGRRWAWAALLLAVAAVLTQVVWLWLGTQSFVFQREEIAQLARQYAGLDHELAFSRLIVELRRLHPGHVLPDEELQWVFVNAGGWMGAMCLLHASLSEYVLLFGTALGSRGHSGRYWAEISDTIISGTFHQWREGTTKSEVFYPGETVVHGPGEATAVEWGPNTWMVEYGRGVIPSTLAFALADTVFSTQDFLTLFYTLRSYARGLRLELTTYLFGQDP

SMILES strings stand for the structures.

This experiment addresses human σ1 receptor (Homo sapiens, UniProt Q99720). As to the kind of experiment: Human σ1 receptor radioligand assay ([3H](+)-pentazocine, transfected HEK-293 membranes). As to conditions: read-out: μ and σ1 dual binding; one class symbol for both Ki-σ1 (human σ1 receptor, A1) and Ki-μ (human μ-opioid receptor, A2). The protocol: Human σ1 Receptor Radioligand Assay
To investigate binding properties of test compounds to human σ1 receptor, transfected HEK-293 membranes and [^3H](+)-pentazocine (Perkin Elmer, NET-1056), as the radioligand, were used. The assay was carried out with 7 μg of membrane suspension, 5 nM of [^3H](+)-pentazocine in either absence or presence of either buffer or 10 μM Haloperidol for total and non-specific binding, respectively. Binding buffer contained Tris-HCl 50 mM at pH 8. Plates were incubated at 37° C. for 120 minutes. After the incubation period, the reaction mix was then transferred to MultiScreen HTS, FC plates (Millipore), filtered and plates were washed 3 times with ice-cold 10 mM Tris-HCL (pH7.4). Filters were dried and counted at approximately 40% efficiency in a MicroBeta scintillation counter (Perkin-Elmer) using EcoScint liquid scintillation cocktail

`O=C(c1ccccn1)C1(N2CCN(Cc3ccccc3)CC2)CCOC2(CCCC2)C1` (stereo not shown): the Ki was less than 100 nM.
